These results are taken from patent publication US20130267473A1.

For the experiment, the target named is mannose-6-phosphate (M6P) receptor on GM00248 human Pompe fibroblasts (human). Nature of the experiment: cell-based or functional assay.

“Myozyme® (alglucosidase alpha, Genzyme), commercial human alpha-glucosidase (from UniProt P10253 57-952)” gave a Kuptake (uptake into GM00248 fibroblasts, non-linear regression of intracellular activity vs enzyme concentration) of 64 nM.
“huGAA_CcMan4/5 (recombinant human alpha glucosidase from Y. lipolytica OXYY1589, uncapped with CcMan5 and de-mannosylated with CcMan4) (from UniProt P10253 57-952) (enzyme)”: the uptake efficiency relative to Myozyme® in GM00248 fibroblasts (times (vs Myozyme®)) is 2.5; the uptake relative to Myozyme® in GM00248 fibroblasts, 1000 U/ml, 14 h and 46 h (times (vs Myozyme®)) amounted to 1.8.
In turn, “huGAA_JBMan (recombinant human alpha glucosidase from Y. lipolytica OXYY1589, uncapped and de-mannosylated with Jack bean alpha-mannosidase) (from UniProt P10253 57-952) (enzyme)” registered an uptake efficiency relative to Myozyme® in GM00248 fibroblasts (times (vs Myozyme®)) of 2.5.
In turn, “purified huGAA uncapped and demannosylated with CcMan5 and JbMan (Example 11) (from UniProt P10253 57-952) (enzyme)” returned a Kuptake (uptake into GM00248 fibroblasts, non-linear regression of intracellular activity vs enzyme concentration) of 1.7 nM and an uptake efficiency relative to Myozyme® in GM00248 fibroblasts (times (vs Myozyme®)) of 30.
